Chains of the proteins cited; added tags and fusions are not shown. Lines headed by an entry give the natural chain unless they say otherwise; changes in a name come on top.
UniProt P41146: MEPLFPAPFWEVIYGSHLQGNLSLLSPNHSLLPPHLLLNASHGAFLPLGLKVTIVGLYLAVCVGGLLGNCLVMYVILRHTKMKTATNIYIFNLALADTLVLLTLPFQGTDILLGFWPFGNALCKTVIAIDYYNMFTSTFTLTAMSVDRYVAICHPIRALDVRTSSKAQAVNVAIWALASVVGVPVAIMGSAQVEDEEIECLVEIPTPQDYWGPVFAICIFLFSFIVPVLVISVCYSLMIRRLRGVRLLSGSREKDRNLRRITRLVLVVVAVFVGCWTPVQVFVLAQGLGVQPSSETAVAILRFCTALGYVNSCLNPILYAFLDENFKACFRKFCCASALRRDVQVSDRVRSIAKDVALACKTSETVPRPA
UniProt Q13519: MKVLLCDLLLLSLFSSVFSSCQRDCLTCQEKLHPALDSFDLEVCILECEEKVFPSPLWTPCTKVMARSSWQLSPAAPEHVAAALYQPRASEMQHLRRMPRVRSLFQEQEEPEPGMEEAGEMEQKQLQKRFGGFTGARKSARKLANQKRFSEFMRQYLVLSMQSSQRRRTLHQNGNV

In patent US20050196743A1:

Molecular target: nociceptin receptor (human) (UniProt P41146)
Experiment: cell-based or functional assay

EC50, M (ligand-dependent induction of cell surface Aga2-HA): 1.2 µM
HRP activity (ELISA of DTT-extracted Aga2-HA) at 0 M ligand: 0.097
HRP activity (ELISA of DTT-extracted Aga2-HA) at 1.13 × 10^-7 M ligand: 0.097
HRP activity (ELISA of DTT-extracted Aga2-HA) at 4 × 10^-6 M ligand: 0.37
HRP activity (ELISA of DTT-extracted Aga2-HA) at 5 × 10^-7 M ligand: 0.24
Induction factor (cell surface Aga2-HA): 4.2
Substance: nociceptin (from UniProt Q13519 130-146) (peptide)
